Only a part is listed here, and it is no random draw. Some salts and complexes are drawn in separate pieces, as the source files them; their charges need not balance. Activity calls are given as the source filed them. Calls follow the shape of the dose curve; as a rule, active = well fitted activation curve with a large enough effect; inconclusive = small, poorly fitted or top-dose-only effect; inactive = no such curve, though single readings can be large or run the other way.

The experiment can be described thus: qHTS Assay for NPC1 Promoter Activators.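 Also: reporter is driven by a mutant NPC1 promoter; % of control where 0% means no effect; nearly all actives have a fitted effect of over 60% in size.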 Particulars: Huh7 NPC1 promoter luciferase reporter, 24 h; at 9.22 µM (top of the series).
For the compound `CCOC(=O)N1CCC(Nc2ccc(F)cc2)CC1`, the activation was inactive: 0.509%.

Regarding `COc1ccc(NC2CCN(CCc3ccccc3)CC2)c(OC)c1`, the activation is inactive: -0.582%.

`CCCCOc1ccc(C(=O)NCC2(N3CCOCC3)CCCCC2)cc1`: the activation is inactive: 12.1%.

As for `O=C(NCC1(N2CCCCC2)CCCCC1)c1ccc(F)cc1`, the activation was inactive: -1.98%.

With `CCOc1ccc(C)cc1CN(CCCl)CCCl`, the activation was inactive: -4.44%.

Consider `Cc1ccc(OCC(C)C)c(CN(CCCl)CCCl)c1`, for which the activation is inactive: -0.402%.

For the compound `CCOC(=O)N1CCC(Nc2cccc(C)c2)CC1`, the activation is inactive: -2.21%.

In the case of `COc1cc(C(=O)NCC2(N(C)C)CCCCC2)ccc1OC(F)F`, the activation is inactive: 0.768%.

`CSc1ccccc1C(=O)NCC1(N2CCCCC2)CCCCC1`: the activation was inactive: 0.624%.

Take `O=C(NCC1(N2CCCCC2)CCCCC1)c1cccs1`: the activation is inactive: 1.4%.

As to `O=C(NCC1(N2CCCCC2)CCCCC1)c1ccc(=O)[nH]c1`, the activation is inactive: -4.53%.

On to `COc1ccc(C(=O)NCC2(N3CCCCC3)CCCCC2)c(OC)c1OC`, for which the activation is inactive: -2.8%.

As for `CC(C)(C)OC(=O)N1CCC(N(C(=O)c2ccccc2)c2ccc(F)cc2)CC1`, the activation was inactive: -1.95%.

As to `COc1ccc(C(=O)NCC2(N3CCCCC3)CCCCC2)cc1`, the activation is inactive: 8.58%.

Take `CCOC(=O)N1CCC(Nc2ccc(OC)cc2)CC1`: the activation was inactive: -2.83%.

Regarding `COc1ccc(Cl)cc1C(=O)NCC1(N2CCOCC2)CCCCC1`, the activation was inactive: -0.252%.

Regarding `N#CC1(Nc2ccccc2)CCN(Cc2ccccc2)CC1`, the activation is inactive: -3.19%.

Take `O=C(NCC1(N2CCCCC2)CCCCC1)c1ccc(Cl)s1`: the activation was inactive: -5.46%.

For `O=C(OC1CN2CCC1CC2)C1c2ccccc2Oc2ccccc21` (stereo not given), the activation is inactive: 0.063%.

Regarding `O=C(NCC1(N2CCOCC2)CCCCC1)c1cc2ccccc2o1`, the activation was inactive: 4.83%.

`Cc1cc(C)cc(N(C(=O)c2ccccc2)C2CCN(C(=O)OC(C)(C)C)CC2)c1`: the activation was inactive: -3.21%.

Consider `O=C(NCC1(N2CCCCC2)CCCCC1)c1ccc(Cl)nc1`, for which the activation was inactive: -3.57%.

Turning to `COc1cc(OC)c(C(=O)NCC2(N(C)C)CCCCC2)cc1OC`, the activation was inactive: 0.132%.

Take `CN(C)c1cccc(C(=O)NCC2(N3CCCCC3)CCCCC2)c1`: the activation was inactive: -1.9%.

On to `O=[N+]([O-])c1cc([N+](=O)[O-])c(OC2CCCCC2O)c([N+](=O)[O-])c1` (stereo not given), for which the activation is inactive: -4.35%.

`COc1ccc(CN(CCCl)CCCl)cc1Cl`: the activation was inactive: -1.13%.

On to `CCCOc1ccc(C(=O)NCC2(N(C)C)CCCCC2)cc1OC`, for which the activation was inactive: -2.18%.

With `O=C(NCC1(N2CCCCC2)CCCCC1)c1cncc(Br)c1`, the activation was inactive: -2.32%.

Regarding `COc1ccc2c(c1O)-c1c(O)c(OC)cc3c1[C@H](C2)[N+](C)(C)CC3.O=[N+]([O-])c1cc([N+](=O)[O-])c([O-])c([N+](=O)[O-])c1[O-]`, the activation was inactive: -5.69%.

As to `O=C(OC1CN2CCC1CC2)c1ccc([N+](=O)[O-])cc1` (stereo not given), the activation was inactive: 9.74%.

As to `CSc1ccc(C(=O)NCC2(N3CCOCC3)CCCCC2)cc1`, the activation is inactive: 0.781%.

For the compound `O=C(NCC1(N2CCCCC2)CCCCC1)c1cccc([N+](=O)[O-])c1`, the activation was inactive: -3.67%.

On to `N#CC1(Nc2ccccc2)CCN(CCc2ccccc2)CC1`, for which the activation is inactive: -5.03%.

For `CCN1CCC(Nc2ccc(Cl)cc2)CC1`, the activation was inactive: -2.48%.

As for `O=C(NCC1(N2CCCCC2)CCCCC1)c1ccc(OC(F)F)cc1`, the activation was inactive: 3.53%.

In the case of `COc1ccc(NC2CCN(C(=O)OC(C)(C)C)CC2)cc1`, the activation is inactive: -0.0621%.

On to `CC(C)c1ccc(C(=O)NCC2(N3CCOCC3)CCCCC2)cc1`, for which the activation was inactive: 6.02%.

For the compound `CN1CCN(CCOC(=O)C(O)(c2ccccc2)c2ccccc2)CC1`, the activation was inactive: -2.11%.

On to `O=C(NCC1(N2CCOCC2)CCCCC1)c1cc(=O)[nH]c2ccccc12`, for which the activation is inactive: -4.38%.

For `COc1cc(C(=O)NCC2(N3CCCCC3)CCCCC2)ccc1OC(F)F`, the activation is inactive: 0.393%.

As to `O=C(NCC1(N2CCCCC2)CCCCC1)c1cccc(C(F)(F)F)c1`, the activation is inactive: 2.13%.

Regarding `O=[N+]([O-])c1cc([N+](=O)[O-])c(NCC2CCS(=O)(=O)C2)c([N+](=O)[O-])c1` (stereo not given), the activation was inactive: -19.7%.

As for `CCOC(=O)C(CC)C1=NC(C)(C)Cc2ccccc21.O=[N+]([O-])c1cc([N+](=O)[O-])c(O)c([N+](=O)[O-])c1` (stereo not given), the activation is inactive: -2.2%.

As for `CC(C)(C)OC(=O)N1CCC(N(C(=O)c2ccccc2)c2ccc(Cl)cc2)CC1`, the activation is inactive: -0.0851%.

Take `N#Cc1ccc(C(=O)NCC2(N3CCCCC3)CCCCC2)cc1`: the activation is inactive: -4.13%.

Turning to `CCCN1CCC(Nc2cc(OC)cc(OC)c2)CC1`, the activation was inactive: -4.69%.

Consider `c1ccc(CN2CCC(Nc3ccccc3)CC2)cc1`, for which the activation is inactive: -0.975%.

For the compound `CN(C)C1(CNC(=O)c2cccc(C#N)c2)CCCCC1`, the activation is inactive: -3.06%.

For `COc1ccc(C(=O)NCC2(N3CCOCC3)CCCCC2)cc1OC`, the activation is inactive: 1.98%.

With `O=C(NCC1(N2CCOCC2)CCCCC1)c1cc(Br)ccc1Cl`, the activation is inactive: -2.16%.

Turning to `O=C(O)c1cccc(Nc2c([N+](=O)[O-])cc([N+](=O)[O-])cc2[N+](=O)[O-])c1`, the activation was inactive: -1.06%.

Take `CCc1cc(C(=O)NCC2(N3CCCCC3)CCCCC2)sc1C`: the activation is inactive: -8.8%.

Regarding `O=C(OC1CN2CCC1CC2)C1c2ccccc2C=Cc2ccccc21` (stereo not given), the activation is inactive: -3.83%.

With `N/C(=N\O)c1c(N)no[n+]1[O-]`, the activation was inactive: 2.24%.

In the case of `CCOC(=O)N1CCC(Nc2ccc(C)cc2)CC1`, the activation was inactive: -3.88%.

In the case of `CCCOc1ccc(C(=O)NCC2(N(C)C)CCCCC2)cc1`, the activation is inactive: -1.95%.

In the case of `O=C(O)C1(Nc2ccccc2)CCN(Cc2ccccc2)CC1`, the activation is inactive: 0.405%.

For the compound `CC(C)(C)OC(=O)N1CCC(Nc2ccccc2)CC1`, the activation was inactive: 1.62%.

As to `CN1CCC(Nc2ccc(F)c(Cl)c2)CC1`, the activation is inactive: -0.815%.

Regarding `CCOc1ncccc1C(=O)NCC1(N2CCOCC2)CCCCC1`, the activation is inactive: 0.571%.

In the case of `CCCOc1ccc(C)cc1CN(CCCl)CCCl`, the activation is inactive: -2.68%.

For the compound `CN1CCC(Nc2ccc(Cl)cc2)CC1`, the activation is inactive: 1.34%.

Turning to `CCC(CO)(C(=O)OC1CN2CCC1CC2)c1ccccc1` (stereo not given), the activation was inactive: -2.27%.

Regarding `COc1cccc(C(=O)N(c2cc(C)cc(C)c2)C2CCN(C(=O)OC(C)(C)C)CC2)c1`, the activation was inactive: -3.54%.

Take `COc1cc(OC)cc(C(=O)NCC2(N3CCOCC3)CCCCC2)c1`: the activation was inactive: 3.1%.

In the case of `Fc1ccccc1NC1CCN(Cc2ccccc2)CC1`, the activation was inactive: -2.53%.

Consider `Cc1ccc(C(=O)NCC2(N3CCCCC3)CCCCC2)o1`, for which the activation was inactive: 7.62%.

For the compound `CN(C)c1ccc(C(=O)NCC2(N3CCCCC3)CCCCC2)cc1`, the activation is inactive: 1.9%.

As for `O=C(NCC1(N2CCCCC2)CCCCC1)c1ccco1`, the activation is inactive: 0.641%.

Consider `CCN1CCC(Nc2cccc(F)c2)CC1`, for which the activation is inactive: 1.38%.

Values taken from PubChem BioAssay AID485313 (National Center for Advancing Translational Sciences (NCATS), 2010).
